ChEMBL document CHEMBL5625159, “Challenges for the development of mutant isocitrate dehydrogenases 1 inhibitors to treat glioma” (Eur J Med Chem, 2023)

Assay: Brain to plasma ratio in mouse at 50 mg/kg, iv
Format: ADME, organism-based
Details: brain and plasma, read-out: BPR

Kp: 0.24
SMILES: C[C@H](Nc1ccc(C#N)n(C)c1=O)c1cc2cc(Cl)ccc2[nH]c1=O [OLUTASIDENIB]
